Source: ChEMBL document CHEMBL1156633, “Discovery of novel and long acting muscarinic acetylcholine receptor antagonists” (J Med Chem, 2008)

By UniProt entry, the sequences of proteins in these tests, tags left out. Where a name states a change or a piece, a line headed by the entry shows the natural chain unless it says otherwise.
UniProt P08172, whole entry: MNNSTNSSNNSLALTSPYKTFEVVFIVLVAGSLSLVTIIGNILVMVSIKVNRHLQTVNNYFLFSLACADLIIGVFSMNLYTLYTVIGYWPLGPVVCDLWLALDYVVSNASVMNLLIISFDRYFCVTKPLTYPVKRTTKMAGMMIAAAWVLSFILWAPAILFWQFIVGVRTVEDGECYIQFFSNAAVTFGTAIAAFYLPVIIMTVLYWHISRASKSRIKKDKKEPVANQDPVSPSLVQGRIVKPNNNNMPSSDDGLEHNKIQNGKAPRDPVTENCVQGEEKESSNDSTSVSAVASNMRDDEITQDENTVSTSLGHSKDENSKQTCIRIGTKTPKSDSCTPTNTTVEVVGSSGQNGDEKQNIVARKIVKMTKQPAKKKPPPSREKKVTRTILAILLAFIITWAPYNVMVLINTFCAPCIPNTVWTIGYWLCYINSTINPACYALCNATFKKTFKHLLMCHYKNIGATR
UniProt P11229: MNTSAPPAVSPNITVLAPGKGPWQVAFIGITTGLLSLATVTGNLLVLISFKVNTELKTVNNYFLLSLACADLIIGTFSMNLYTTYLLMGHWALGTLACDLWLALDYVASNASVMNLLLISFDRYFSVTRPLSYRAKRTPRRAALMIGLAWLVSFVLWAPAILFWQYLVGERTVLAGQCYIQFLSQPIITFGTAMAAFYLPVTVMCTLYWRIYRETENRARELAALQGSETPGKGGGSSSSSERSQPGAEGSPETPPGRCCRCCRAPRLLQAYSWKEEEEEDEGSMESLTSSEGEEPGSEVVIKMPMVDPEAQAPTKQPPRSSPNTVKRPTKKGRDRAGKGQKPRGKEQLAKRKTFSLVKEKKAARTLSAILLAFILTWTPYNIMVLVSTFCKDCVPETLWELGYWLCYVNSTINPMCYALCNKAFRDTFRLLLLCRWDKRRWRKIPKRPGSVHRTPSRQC

How the values were obtained:
[1] = molecular target: Muscarinic acetylcholine receptor M2 (Homo sapiens, UniProt P08172); test: Displacement of [3H]N-methyl Scopolamine from human muscarinic acetylcholine M2 receptor expressed in CHO cells coexpressed with Gqi5 by scintillation proximity assay; assay type: cell-based
[2] = molecular target: T1, Muscarinic acetylcholine receptor M3 (Homo sapiens, UniProt P20309); test: Displacement of [3H]N-methyl Scopolamine from human muscarinic acetylcholine M3 receptor expressed in CHO cells by scintillation proximity assay
[3] = molecular target: Muscarinic acetylcholine receptor M1 (Homo sapiens, UniProt P11229); test: Antagonist activity at human muscarinic acetylcholine M1 receptor expressed in CHO cells assessed as inhibition of acetylcholine-induced calcium mobilization by single concentration kinetic FLIPR assay; assay type: functional, cell-based; conditions: read-out: pA2 (converted)
Procedure, shortened: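 CHO cells stably expressing the human recombinant muscarinic receptor subtype, in a fluorometric imaging plate reader (FLIPR) assay. Read-out is inhibition of acetylcholine-mediated intracellular Ca2+ mobilization. Results are the mean of at least two determinations.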

[4] = molecular target: T1, Muscarinic acetylcholine receptor M3; test: Displacement of [3H]N-methyl Scopolamine from human muscarinic acetylcholine M3 receptor expressed in CHO cells by scintillation proximity assay; assay type: cell-based

- Ki [1]: 3.16 nM
- Ki [2]: 0.316 nM
- Kb [3]: 0.126 nM
- Ki [4]: 31.6 nM
Compound: CC(C)OC(=O)c1ccc(NC(=O)N[C@@H](Cc2ccc(O)cc2)C(=O)N[C@H]2CCC[N+](C)(Cc3cccc(O)c3)C2)cc1.[I-] (some centres undefined)
